How the values were obtained:
[1] = biological target: Oxysterols receptor LXR-beta (Rattus norvegicus, UniProt Q62755); assay: Transactivation of rat LXRbeta expressed in HEK293FT cells measured after 14 to 18 hrs by dual-luciferase reporter gene assay; type: cell-based
[2] = biological target: Oxysterols receptor LXR-beta (Rattus norvegicus) (UniProt Q62755); assay: Transactivation of rat LXRbeta expressed in HEK293FT cells measured after 14 to 18 hrs by dual-luciferase reporter gene assay relative to T0901317; type: cell-based

Amino acid sequences for entries named in this document (tags omitted).
UniProt Q62755, whole entry: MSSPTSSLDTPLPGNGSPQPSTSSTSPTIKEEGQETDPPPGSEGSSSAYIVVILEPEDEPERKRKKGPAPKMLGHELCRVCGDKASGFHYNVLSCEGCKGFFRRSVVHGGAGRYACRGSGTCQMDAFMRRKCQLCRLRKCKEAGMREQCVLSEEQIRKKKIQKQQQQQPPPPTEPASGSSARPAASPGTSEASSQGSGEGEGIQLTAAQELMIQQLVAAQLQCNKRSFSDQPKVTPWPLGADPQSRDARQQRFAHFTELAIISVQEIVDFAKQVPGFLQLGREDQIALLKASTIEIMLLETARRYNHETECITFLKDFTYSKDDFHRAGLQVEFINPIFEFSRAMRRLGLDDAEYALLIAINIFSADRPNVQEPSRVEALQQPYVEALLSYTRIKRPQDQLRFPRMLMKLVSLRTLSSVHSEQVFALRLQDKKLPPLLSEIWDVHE

| SMILES | EC50 [1] [nM] | Efficacy [2] [%] |
| --- | --- | --- |
| O=S(=O)(c1ccccc1)N(CC(F)(F)F)c1ccc(C(O)(C(F)(F)F)C(F)(F)F)cc1 [T091317] | 30 | – |
| C[C@H](C[C@@H]1CCN(C)C1=O)[C@H]1CC[C@H]2[C@@H]3CC=C4C[C@@H](O)CC[C@]4(C)[C@H]3CC[C@]12C | – | 0.54 |
| C[C@H](C[C@H]1CCN(C)C1=O)[C@H]1CC[C@H]2[C@@H]3CC=C4C[C@@H](O)CC[C@]4(C)[C@H]3CC[C@]12C | – | 66 |
| C[C@H](C[C@@H]1CCCN(C)C1=O)[C@H]1CC[C@H]2[C@@H]3CC=C4C[C@@H](O)CC[C@]4(C)[C@H]3CC[C@]12C | – | 0.69 |
| C[C@H](C[C@H]1CCCN(C)C1=O)[C@H]1CC[C@H]2[C@@H]3CC=C4C[C@@H](O)CC[C@]4(C)[C@H]3CC[C@]12C | – | 117 |

From ChEMBL document CHEMBL4339203, “Structural requirements of cholenamide derivatives as the LXR ligands” (Bioorg Med Chem Lett, 2019)
